Drawing on PubChem BioAssay AID637 (SRMLSC, 2007), this text covers inhibition for 1 compound.

Only a part is listed here, and it is no random draw. The source made the active and inactive calls. No stated cut-off is given here; in the data, active means inhibition above about 30%; inactive means the rest.

The experiment can be described thus: growth suppression of yeast trafficking mutant, preliminary HTS, modulators of trafficking downstream of Golgi apparatus project, 1536-format plate, OD 615 nm (AID 637). The conditions noted are these: yeast transport mutant growth, absorbance 615 nm, 18 h; active compounds read high.
Turning to `Fc1ccccc1NC1CCN(Cc2ccccc2)CC1`, the inhibition is inactive: 1.15%.
